The source of these data is US11596632B2, “JAK1 pathway inhibitors for the treatment of gastrointestinal disease” (Incyte Corporation, priority 2018, dated 2023).

Chains of the proteins cited; added tags and fusions are not shown. Residues count along the entry.
UniProt P23458, 837-1142: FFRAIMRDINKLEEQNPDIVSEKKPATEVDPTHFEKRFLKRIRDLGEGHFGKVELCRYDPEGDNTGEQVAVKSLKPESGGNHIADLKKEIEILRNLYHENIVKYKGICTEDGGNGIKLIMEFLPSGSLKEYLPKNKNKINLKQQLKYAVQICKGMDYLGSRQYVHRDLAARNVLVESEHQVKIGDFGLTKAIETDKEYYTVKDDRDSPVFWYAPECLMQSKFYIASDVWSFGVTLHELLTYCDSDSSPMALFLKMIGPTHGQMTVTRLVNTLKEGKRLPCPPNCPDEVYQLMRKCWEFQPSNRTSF

Each structure is given as a SMILES string.

This experiment deals with human JAK1 (a.a. 837-1142) (Homo sapiens (Human), UniProt P23458). Kind of experiment: In vitro JAK kinase assay (HTRF), JAK1. The class given is biochemical. As to conditions: 1 mM ATP. As for the experimental part: The catalytic activity of JAK1, JAK2 or JAK3 was assayed by measuring the phosphorylation of a biotinylated peptide. The phosphorylated peptide was detected by homogenous time resolved fluorescence (HTRF). […] Reactions are carried out at room temperature for 1 hour and then stopped with 20 μL 45 mM EDTA, 300 nM SA-APC, 6 nM Eu-Py20 in assay buffer (Perkin Elmer, Boston, Mass.). Binding to the Europium labeled antibody takes place for 40 minutes and HTRF signal was measured on a Fusion plate reader (Perkin Elmer, Boston, Mass.).

As a reminder, the IC50 is the point on the concentration scale where inhibition reaches its midpoint. A high value points to lower potency. Regarding `CN(C)Cc1cc(F)cc(OC2CCN(CC(CC#N)n3cc(-c4ncnc5[nH]ccc45)cn3)CC2)c1` (single isomer, unassigned) [Compound 14, 4-(4-{3-[(dimethylamino)methyl]-5-fluorophenoxy}piperidin-1-yl)-3-[4-(7H-pyrrolo[2,3-d]pyrimidin-4-yl)-1H-pyrazol-1-yl]butanenitrile], the IC50 is < 10 nM.
